Results on 37 compounds are retold here after patent US9278960B2, “Quinoline carboxamide and quinoline carbonitrile derivatives as mGluR2-negative allosteric modulators, compositions, and their use” (Merck Sharp & Dohme Corp., priority 2011, dated 2016).

By UniProt entry, the sequences of proteins in these tests, tags left out. Residues count along the entry.
UniProt Q14416, 19-872: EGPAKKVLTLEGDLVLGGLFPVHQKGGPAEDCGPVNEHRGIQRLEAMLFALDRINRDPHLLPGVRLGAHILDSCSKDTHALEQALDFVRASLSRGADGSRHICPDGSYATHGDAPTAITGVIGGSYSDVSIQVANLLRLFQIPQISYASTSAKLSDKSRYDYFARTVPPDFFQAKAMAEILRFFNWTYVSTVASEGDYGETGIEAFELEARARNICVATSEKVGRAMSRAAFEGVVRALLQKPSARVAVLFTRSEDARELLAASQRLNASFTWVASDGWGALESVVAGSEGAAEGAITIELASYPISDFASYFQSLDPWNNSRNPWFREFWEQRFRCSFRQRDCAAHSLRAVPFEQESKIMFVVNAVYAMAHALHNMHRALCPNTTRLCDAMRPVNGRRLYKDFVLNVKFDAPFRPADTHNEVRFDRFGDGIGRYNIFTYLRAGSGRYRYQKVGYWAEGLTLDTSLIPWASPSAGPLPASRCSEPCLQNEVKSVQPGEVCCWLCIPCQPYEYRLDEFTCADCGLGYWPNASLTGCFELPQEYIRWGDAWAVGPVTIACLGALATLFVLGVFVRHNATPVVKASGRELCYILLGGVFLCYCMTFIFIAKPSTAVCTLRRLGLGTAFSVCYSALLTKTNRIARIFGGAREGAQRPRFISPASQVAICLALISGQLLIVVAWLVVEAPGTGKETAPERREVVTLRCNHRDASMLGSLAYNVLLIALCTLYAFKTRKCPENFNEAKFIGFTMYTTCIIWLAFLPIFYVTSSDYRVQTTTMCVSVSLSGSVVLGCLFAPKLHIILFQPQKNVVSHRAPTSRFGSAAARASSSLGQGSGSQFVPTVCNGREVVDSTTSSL

What is called IC50 is the midpoint of a concentration-inhibition curve.

Counter-ions that a name gives are not always drawn.

The test concerns the target human mGluR2 (Homo sapiens (Human), UniProt Q14416). Kind of test: FLIPR Ca2+ mobilization antagonist assay in CHO dhfr- cells expressing recombinant human mGluR2 and Gα16. The format is cell-based. To be noted: antagonist response after addition of 2,500 nM glutamate, Fluo-4 AM, FLIPR384. For orientation: Calcium flux is commonly read through the fluorescence of an indicator in the cells.

As for `N#Cc1cc(-c2ccc(F)cc2)c2ccc(CN3C(=O)COC3=O)cc2n1` [Example 2-17, 7-[(2,4-dioxo-1,3-oxazolidin-3-yl)methyl]-4-(4-fluorophenyl)quinoline-2-carbonitrile], the IC50 is 398 nM.
On to `CCc1ncc(-c2cc(C(N)=O)nc3cc(CN4CCOC(C(F)(F)F)C4)ccc23)s1` (stereo not shown) [Example 4-74, 4-(2-ethyl-1,3-thiazol-5-yl)-7-{[2-(trifluoromethyl)morpholin-4-yl]methyl}quinoline-2-carboxamide], for which the IC50 is 91 nM.
As to `C[C@@H]1CN(Cc2ccc3c(-c4cnc(C(F)F)s4)cc(C(N)=O)nc3c2)C[C@H](C(F)(F)F)O1` [Example 4-117, 4-[2-(difluoromethyl)-1,3-thiazol-5-yl]-7-{[(2R,6R)-2-methyl-6-(trifluoromethyl)morpholin-4-yl]methyl}quinoline-2-carboxamide], the IC50 worked out at 53 nM.
As for `CCC1CN(Cc2ccc3c(-c4cnn(C)c4)cc(C(N)=O)nc3c2)CCO1` (stereo not shown) [Example 4-99, 7-[(2-ethylmorpholin-4-yl)methyl]-4-(1-methyl-1H-pyrazol-4-yl)quinoline-2-carboxamide], the IC50 was found to be 55 nM.
As for `NC(=O)c1cc(-c2ccc(F)cc2)c2ccc(Cn3c(C4CC4)nc4ccccc43)cc2n1` [Example 3-39, 7-[(2-cyclopropyl-1H-benzimidazol-1-yl)methyl]-4-(4-fluorophenyl)quin-oline-2-carboxamide], the figure is 73 nM; as for `Cc1nn(C)cc1-c1cc(C(N)=O)nc2cc(CN3C[C@@H](C)O[C@@H](C(F)(F)F)C3)ccc12` [Example 4-135, 4-(1,3-dimethyl-1H-pyrazol-4-yl)-7-{[(2R,6R)-2-methyl-6-(trifluoromethyl)morpholin-4-yl]methyl}quinoline-2-carboxamide], 8 nM.
As for `Cc1cnc(-c2cc(C(N)=O)nc3cc(CN4C[C@@H](C)O[C@@H](C(F)(F)F)C4)ccc23)s1` [Example 4-125, 4-(5-methyl-1,3-thiazol-2-yl)-7-{[(2R,6R)-2-methyl-6-(trifluoromethyl)morpholin-4-yl]methyl}quinoline-2-carboxamide], the figure is 76 nM; as for `NC(=O)c1cc(-c2ccc(F)cc2)c2ccc(Cn3c(-c4cccnc4)nc4ccccc43)cc2n1` [Example 3-37, 4-(4-fluorophenyl)-7-[(2-pyridin-3-yl-1H-benzimidazol-1-yl)methyl]quinoline-2-carboxamide], 42 nM; as for `NC(=O)c1cc(-c2ccc(F)cc2)c2ccc(Cn3cc(C(=O)C4CC4)cn3)cc2n1` [Example 3-11, 7-{[4-(cyclopropylcarbonyl)-1H-pyrazol-1-yl]methyl}-4-(4-fluorophenyl)quinoline-2-carboxamide], 31 nM.
As to `CN1CC(=O)N(Cc2ccc3c(-c4ccc(F)cc4)cc(C(N)=O)nc3c2)C1=O` [Example 2-3, 4-(4-fluorophenyl)-7-((3-methyl-2,5-dioxoimidazolidin-1-yl)methyl)quinoline-2-carboxamide], the IC50 is 21 nM.
With `Cc1cc(Cc2ccc3c(-c4cnn(C)c4)cc(C(N)=O)nc3c2)cc(C)n1` [Example 6-24, 7-[(2,6-dimethylpyridin-4-yl)methyl]-4-(1-methyl-1H-pyrazol-4-yl)quinoline-2-carboxamide] the figure was 25 nM; with `N#Cc1cc(-c2ccc(F)cc2)c2ccc(CN3CCCC3=O)cc2n1` [Example 2-36, 4-(4-fluorophenyl)-7-[(2-oxopyrrolidin-1-yl)methyl]quinoline-2-carbonitrile], 3060 nM; with `CCC1(C)CC(=O)N(Cc2ccc3c(-c4ccc(F)cc4)cc(C(N)=O)nc3c2)C1=O` (stereo not shown) [Example 2-14, 7-[(3-ethyl-3-methyl-2,5-dioxopyrrolidin-1-yl)methyl]-4-(4-fluorophenyl)quinoline-2-carboxamide], 30 nM.
For the compound `NC(=O)c1cc(-c2ccc(F)cc2)c2cc(F)c(CN3C(=O)CCC3=O)cc2n1` [Example 7-21, 7-[(2,5-dioxopyrrolidin-1-yl)methyl]-6-fluoro-4-(4-fluorophenyl)quinoline-2-carboxamide], the IC50 amounted to 21 nM.
For the compound `COc1ccc(-c2cc(C(N)=O)nc3cc(C)ccc23)cc1` [Example 1-26, 4-(4-methoxyphenyl)-7-methylquinoline-2-carboxamide], the IC50 was determined as 217 nM.
With `COc1ccc(-c2cc(C(N)=O)nc3cc(CCc4cccnc4N)ccc23)c(F)c1` [Example 8-31, 7-[2-(2-aminopyridin-3-yl)ethyl]-4-(2-fluoro-4-methoxyphenyl) quinoline-2-carboxamide] the figure was 9 nM; with `Cn1cc(-c2cc(C(N)=O)nc3cc(CN4CCCCC45CC5)ccc23)cn1` [Example 4-132, 7-(4-azaspiro[2.5]oct-4-ylmethyl)-4-(1-methyl-1H-pyrazol-4-yl)quinoline-2-carboxamide], 149 nM; with `CC(=O)NC1CCN(Cc2ccc3c(-c4ccc(F)cc4)cc(C(N)=O)nc3c2)C1` (stereo not shown) [Example 4-35, 7-{[3-(acetylamino)pyrrol-idin-1-yl]methyl}-4-(4-fluorophenyl)quino-line-2-carboxamide], 187 nM.
With `NC(=O)c1cc(-c2cnn(CF)c2)c2ccc(CN3CCO[C@H](C(F)(F)F)C3)cc2n1` [Example 4-85, 4-[1-(fluoromethyl)-1H-pyrazol-4-yl]-7-{[(2S)-2-(trifluoromethyl)morpholin-4-yl]methyl}quinoline-2-carboxamide] the figure was 15 nM; with `NC(=O)c1cc(C2=CCCC2)c2ccccc2n1` [Example 1-11, 4-cyclopent-1-en-1-ylquinoline-2-carboxamide (TFA salt)], 822 nM; with `C[C@@H]1CN(Cc2ccc3c(-c4cn[nH]c4)cc(C(N)=O)nc3c2)C[C@H](C(F)(F)F)O1` [Example 4-97, 7-{[(2R,6R)-2-methyl-6-(trifluoromethyl)morpholin-4-yl]methyl}-4-(1H-pyrazol-4-yl)quinoline-2-carboxamide], 260 nM.
With `COc1ccc(-c2cc(C(N)=O)nc3cc(CCc4ccc(C#N)nc4)ccc23)c(F)c1` [Example 8-7, 7-[2-(6-Cyanopyridin-3-yl)ethyl]-4-(2-fluoro-4-methoxyphenyl)quinoline-2-carboxamide] the figure was 13 nM.
For the compound `NC(=O)c1cc(-c2ccc(F)cc2)c2ccc(C(=O)N3CCCC3)cc2n1` [Example 5-4, 4-(4-Fluorophenyl)-7-(pyrrolidin-1-ylcarbonyl)quinoline-2-carboxamide], the IC50 is 299 nM.
Consider `CC1(C)CC(=O)N(Cc2ccc3c(-c4ccc(F)cc4)cc(C(N)=O)nc3c2)C(=O)C1` [Example 2-10, 7-[(4,4-dimethyl-2,6-dioxopiperidin-1-yl)methyl]-4-(4-fluorophenyl)quinoline-2-carboxamide], for which the IC50 is 21 nM.
Regarding `C[C@H]1CNC(C(F)(F)F)CN1Cc1ccc2c(-c3ccc(F)cc3)cc(C(N)=O)nc2c1` (single isomer, unassigned) [Example 4-22-A, 4-(4-Fluorophenyl)-7-(((2S)-2-methyl-5(R or S)-(trifluoromethyl)piperazin-1-yl)methyl)quinoline-2-carboxamide], the IC50 was found to be 9 nM.
With `NC(=O)c1cc(-c2ccc(F)cc2)c2ccc(Cn3ccnc3)cc2n1` [Example 3-29, 4-(4-fluorophenyl)-7-(1H-imidazol-1-ylmethyl)quinoline-2-carboxamide], the IC50 came to 64 nM.
`NC(=O)c1cc(-c2ccc(F)cc2)c2ccc(Cn3cnc4ccccc43)cc2n1` [Example 3-2, 7-((1H-benzo[d]imidazol-1-yl)methyl)-4-(4-fluorophenyl)quinoline-2-carboxamide]: the IC50 came to 46 nM.
With `COc1ccc(-c2cc(C(N)=O)nc3cc(CCc4cnc(C#N)nc4)ccc23)c(F)c1` [Example 8-33, 7-[2-(2-cyanopyrimidin-5-yl)ethyl]-4-(2-fluoro-4-methoxyphenyl) quinoline-2-carboxamide] the figure was 6 nM; with `Cn1cc(-c2cc(C(N)=O)nc3cc(CN4CCC[C@H](O)C4)ccc23)cn1` [Example 4-122, 7-{[(3S)-3-hydroxypiperidin-1-yl]methyl}-4-(1-methyl-1H-pyrazol-4-yl)quinoline-2-carboxamide], 931 nM; with `Cn1cc(-c2cc(C(N)=O)nc3cc(CN4CCO[C@H](C(F)(F)F)C4)ccc23)cn1` [Example 4-53, 4-(1-methyl-1H-pyrazol-4-yl)-7-{[(2S)-2-(trifluoromethyl)morpholin-4-yl]methyl}quinoline-2-carboxamide], 25 nM.
`COc1ccc(-c2cc(C(N)=O)nc3cc(CCc4cnc(C)nc4)ccc23)cc1C` [Example 8-52, 4-(4-methoxy-3-methylphenyl)-7-[2-(2-methylpyrimidin-5-yl)ethyl]quinoline-2-carboxamide]: the IC50 worked out at 27 nM.
As for `NC(=O)c1cc(-c2ccc(F)cc2)c2ccc(CN3CCOCC3=O)cc2n1` [Example 2-35, 4-(4-fluorophenyl)-7-[(3-oxomorpholin-4-yl)methyl]quinoline-2-carboxamide], the figure is 228 nM.
With `COc1cncc(Cc2ccc3c(-c4ccc(F)cc4)cc(C(N)=O)nc3c2)c1` [Example 6-12, 4-(4-fluorophenyl)-7-[(5-methoxypyridin-3-yl)methyl] quinoline-2-carboxamide] the figure was 31 nM; with `NC(=O)c1cc(-c2ccc(F)cc2)c2ccc(CN3CCNC(C(F)F)C3)cc2n1` (stereo not shown) [Example 4-106, 7-{[3-(difluoromethyl)piperazin-1-yl]methyl}-4-(4-fluorophenyl)quino-line-2-carboxamide], 50 nM; with `Cc1ccc(-c2cc(C(N)=O)nc3ccccc23)c(C#N)c1` [Example 1-23, 4-(2-cyano-4-methylphenyl)quinoline-2-carboxamide], 135 nM.
`CC(C)c1nccn1Cc1ccc2c(-c3ccc(F)cc3)cc(C(N)=O)nc2c1` [Example 3-30, 4-(4-fluorophenyl)-7-{[2-(1-methylethyl)-1H-imidazol-1-yl]methyl}quinoline-2-carboxamide]: the IC50 is 31 nM.
As to `C[C@@H]1CO[C@@H](C(F)(F)F)CN1Cc1ccc2c(-c3cnn(C)c3)cc(C(N)=O)nc2c1` [Example 4-90, 4-(1-methyl-1H-pyrazol-4-yl)-7-{[(2R,5R)-5-methyl-2-(trifluoromethyl)morpholin-4-yl]methyl}quinoline-2-carboxamide], the IC50 stood at 8 nM.
